From ChEMBL document CHEMBL4673296, “Design, Synthesis, and Characterization of an Orally Active Dual-Specific ULK1/2 Autophagy Inhibitor that Synergizes with the PARP Inhibitor Olaparib for the Treatment of Triple-Negative Breast Cancer” (J Med Chem, 2020)

What was measured:
[1] = target: T1, Serine/threonine-protein kinase ULK1 (Homo sapiens, UniProt O75385); assay: Inhibition of recombinant human ULK1 (1-649) expressed in Sf9 cells using myelin basic protein as substrate by ADP-glo assay
T1 sequence (O75385 whole entry): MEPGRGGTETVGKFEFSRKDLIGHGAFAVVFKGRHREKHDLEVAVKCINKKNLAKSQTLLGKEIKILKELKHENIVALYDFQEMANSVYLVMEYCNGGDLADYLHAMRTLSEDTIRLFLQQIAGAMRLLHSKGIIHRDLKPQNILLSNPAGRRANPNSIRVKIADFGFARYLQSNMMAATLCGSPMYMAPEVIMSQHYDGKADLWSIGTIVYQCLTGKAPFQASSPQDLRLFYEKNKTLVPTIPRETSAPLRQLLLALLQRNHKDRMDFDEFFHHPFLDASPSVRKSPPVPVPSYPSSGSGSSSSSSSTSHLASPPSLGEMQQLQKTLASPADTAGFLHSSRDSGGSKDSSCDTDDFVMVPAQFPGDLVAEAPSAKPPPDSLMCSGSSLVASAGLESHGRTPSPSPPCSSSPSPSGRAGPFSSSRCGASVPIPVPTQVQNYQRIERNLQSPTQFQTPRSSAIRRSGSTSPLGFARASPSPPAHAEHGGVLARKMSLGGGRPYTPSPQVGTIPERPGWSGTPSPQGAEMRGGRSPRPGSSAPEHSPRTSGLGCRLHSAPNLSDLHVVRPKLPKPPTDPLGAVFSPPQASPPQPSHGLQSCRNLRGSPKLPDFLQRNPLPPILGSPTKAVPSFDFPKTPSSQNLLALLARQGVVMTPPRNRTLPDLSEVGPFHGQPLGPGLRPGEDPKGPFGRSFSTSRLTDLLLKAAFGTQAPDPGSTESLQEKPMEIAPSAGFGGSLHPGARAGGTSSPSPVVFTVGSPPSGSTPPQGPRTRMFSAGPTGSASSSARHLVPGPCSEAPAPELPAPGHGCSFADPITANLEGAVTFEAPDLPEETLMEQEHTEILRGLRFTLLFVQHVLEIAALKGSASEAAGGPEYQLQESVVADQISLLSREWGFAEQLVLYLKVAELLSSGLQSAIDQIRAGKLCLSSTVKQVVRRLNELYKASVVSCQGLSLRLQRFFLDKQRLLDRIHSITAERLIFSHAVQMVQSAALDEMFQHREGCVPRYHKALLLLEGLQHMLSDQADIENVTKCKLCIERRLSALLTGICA

[2] = target: T1, Serine/threonine-protein kinase ULK1; assay: Inhibition of ULK1 (unknown origin) expressed in HEK293T cells incubated for 2 hrs by NanoBRET assay; type: cell-based
[3] = target: T2, Serine/threonine-protein kinase ULK1 (Homo sapiens) (UniProt O75385); assay: Inhibition of Myc-tagged ULK1 (unknown origin) expressed in HEK293T cells cotransfected with wild-type Flag tagged Vps34 assessed as decrease in pVPS34 Ser249 at 10 uM measured after 1 hr by Western blot analysis relative to control; type: cell-based
T2 sequence (whole entry): T1 sequence (O75385 whole entry)

[4] = target: T2, Serine/threonine-protein kinase ULK1 (Homo sapiens); assay: Binding affinity to recombinant human ULK1 assessed as change in melting temperature at 10 uM by thermal shift assay

Structure (SMILES) | IC50 [1] [nM] | IC50 [2] [nM] | inhibition [3] [%] | ΔTm [4] [°C]
Oc1ccccc1Nc1ncc(C(F)(F)F)c(NC2CC2)n1 | 50 | 6040 | – | –
CNC(=O)c1ccccc1Oc1nc(Nc2cc(OC)c(OC)c(OC)c2)ncc1Br | 130 | – | 70 | 9.5

Second part, led by results:

IC50 [1] [nM] | IC50 [2] [nM] | Structure (SMILES) | inhibition [3] [%] | ΔTm [4] [°C]
14 | 1480 | FC(F)(F)c1cnc(Nc2ccc3[nH]ncc3c2)nc1NC1CC1 | – | –
5 | 585 | FC(F)(F)c1cnc(Nc2ccc3nc[nH]c3c2)nc1NC1CC1 | – | –
13 | 1460 | FC(F)(F)c1cnc(Nc2ccc3nccnc3c2)nc1NC1CC1 | – | –
